Tested on: numerous bacteria, certain of which are resistant to antibiotics
Experiment: bacteriostatic activity, dilution methods (summary of Table VI)
Assay type: cell-based
Conditions: certain bacteria resistant to one or more antibiotics
From the text: For each organism, the lowest concentration of substance has been determined which, under the defined condition, prevents all visible development in an appropriate nutritive broth. The results of various determinations are shown in Table VI, wherein the minimal bacteriostatic concentrations are expressed as micrograms of substance per cubic centimeter of experimental medium.

Q: For `COc1cccc2c1C(=O)c1c(O)c3c(c(O)c1C2=O)C[C@@](O)(C(C)=O)C[C@@H]3O[C@H]1C[C@H](N)[C@H](O)[C@H](C)O1` [13057 RP daunorubicin, daunorubicin], which bacteriostatic activity is on record?
A: exerted against numerous bacteria
